Results: patent US10202406B2, “Boron cluster compounds and uses thereof” (priority 2011, dated 2019)

Tested on: mice
Assay: Motor deficit testing, inverted screen test after injection
Conditions: mice after hind limb injection

CCN(CC)CC(=O)Nc1c(C)cccc1C [lidocaine, reference compound]
motor block (number of experiments with motor block): nearly all the lidocaine experiments showed motor block
